In one experiment the target is rFXIII V34L (human) (UniProt P00488).
Experiment [1] deals with rFXIII V34L, V35T (human) (UniProt P00488).
A further experiment has as its target rFXIII wt (human) (UniProt P00488).

Take “human thrombin (Roche) (from UniProt P00734) (enzyme)”: the thrombin turnover with rFXIII V34L (human) worked out at 0.671 s⁻¹; in experiment [1] it was 1.56 s⁻¹; with rFXIII wt (human) it was 0.207 s⁻¹.
